Assay results as given in patent US10689377B2.

Assays:
KRas G12C [1] = target: KRas G12C (Homo sapiens, UniProt P01116, G12C); experiment: Cellular inhibition of KRas G12C measured by Phospho-ERK in NCI-H358 cells; assay type: cell-based; settings: pERK(Thr202/Tyr204) normalized with GAPDH, 3 hours
KRas G12C [2] = target: KRas G12C (Homo sapiens, UniProt P01116, C118S/C51S/C80L/G12C); experiment: KRas G12C Modification Assay (LCMS detection of covalent adduct); assay type: binding; settings: normalized percent of control; 5 μM concentration for 3 hours

SMILES	IC50 (KRas G12C [1]) [nM]	POC (KRas G12C [2])
C=CC(=O)N1CCN(c2ncnc3c2CCN(c2cccc4ccc(O)cc24)C3)CC1	> 1000	A (“A”≤25% POC)
CN1CC(F)(F)C[C@H]1COc1nc2c(c(N3CCN(C(=O)/C=C/CN4CC(F)C4)[C@@H](CC#N)C3)n1)CCN(c1cccc3cccc(Cl)c13)C2	> 1000	–
